Values joined by “and” are separate entries in the source; they are usually repeats but may differ in a detail not shown here. Equal entries are not always repeated.
What was measured:
rat = experiment: Randall Selitto test in rats (carrageenan oedema, inflammatory pain); type: in vivo; conditions: applied alone
male Sprague-Dawley rats = conditions: withdrawal threshold of ipsi-lateral hind paw, first 0.0316 μg/kg, second 1.0 mg/kg, combination 0.0316 μg/kg + 1.0 mg/kg, Mean ± SEM, n = 10

CN(C)[C@]1(c2ccccc2)CC[C@]2(CC1)OCCc1c3cc(F)ccc3[nH]c12
ED50 (95% CI) first pharmacologically active ingredient (rat; i.v., 15 min p. appl. (peak effect)): 3.48 μg/kg
timepoint of peak effect (rat; first i.v., second i.p., timepoint of first measurement): 15 min p. appl.
% MPE (Maximum possible effect) 30 min. (male Sprague-Dawley rats; 30 min after i.v. administration): 20.7 % MPE and 20.7 ± 12.4 % MPE
% MPE (Maximum possible effect) 60 min. (male Sprague-Dawley rats; 60 min after i.v. administration): 8.2 ± 10.6 % MPE
% MPE (Maximum possible effect) 180 min. (male Sprague-Dawley rats; 180 min after i.v. administration): −1.3 ± 6.0 % MPE

— US20130317009A1 (priority 2012, published 2013)
